The text below walks through data of US20040198716A1, “Cysteine protease inhimbitors” (priority 2001, published 2004).

Sequences of proteins named here, by UniProt entry; tags and fusion partners are left off. Residues count along the entry.
UniProt P42574, 29-175 limits assumed: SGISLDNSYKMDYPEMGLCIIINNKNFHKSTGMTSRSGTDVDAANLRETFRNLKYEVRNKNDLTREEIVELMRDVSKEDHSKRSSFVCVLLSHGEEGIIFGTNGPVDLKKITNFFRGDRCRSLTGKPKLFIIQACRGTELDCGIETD
UniProt P42574, 176-277 limits assumed: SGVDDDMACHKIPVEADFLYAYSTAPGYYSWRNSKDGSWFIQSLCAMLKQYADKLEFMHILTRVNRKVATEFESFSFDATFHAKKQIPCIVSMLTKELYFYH
UniProt P00760, 24-246 limits assumed: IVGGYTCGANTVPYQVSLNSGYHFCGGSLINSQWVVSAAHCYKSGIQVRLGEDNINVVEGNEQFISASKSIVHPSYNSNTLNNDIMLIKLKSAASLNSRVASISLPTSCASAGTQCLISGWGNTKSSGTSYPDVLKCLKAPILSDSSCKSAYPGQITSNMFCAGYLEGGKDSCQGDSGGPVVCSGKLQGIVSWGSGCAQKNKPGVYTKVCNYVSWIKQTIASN
UniProt P00784, 134-345 limits assumed: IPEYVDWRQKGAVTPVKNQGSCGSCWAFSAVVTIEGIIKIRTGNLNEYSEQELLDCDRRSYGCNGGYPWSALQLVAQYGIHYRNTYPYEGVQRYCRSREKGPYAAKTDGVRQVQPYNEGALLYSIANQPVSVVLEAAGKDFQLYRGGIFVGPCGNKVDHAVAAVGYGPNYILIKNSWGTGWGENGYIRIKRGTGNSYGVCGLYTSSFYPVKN

Common to all, as to assay type: biochemical
Assay [1] addresses human recombinant caspase-3 (Homo sapiens, UniProt P42574). Put plainly: In vitro high throughput caspase-3 assay. The settings on record: for Percent Activity: percentage of the positive control, 20-250 μM test compound, lower = better inhibition, negative = better than control caspase inhibitor; for IC50: fixed substrate concentration of 55 μM, inhibitors 75 to 0.067 μM in duplicate; for Ki: read-out: Ki(app), calculated from IC50 according to Equation 1.

The target in assay [2] is TPCK-trypsin (Bos taurus, UniProt P00760). The experiment in a line: Cross-reactivity protease inhibition assay (QuantiCleave), trypsin. As to conditions: ratio Abs450nm with inhibitor / without inhibitor; 100 μM compound. The method, then:
(§1) To evaluate whether inhibition was specific to caspase-3 or applicable to other cysteine proteases or other proteases, inhibitor molecules were assayed for their capacity to inhibit additional non-caspase proteases. Three proteases, TPCK-trypsin, α-chymotrypsin and papain, were used to test for protease inhibition cross-reactivity. Protease inhibition assays were performed in 96-well flat-bottomed micro-titer plates with the QuantiCleave™ protease assay kit (Pierce, Rockford, Ill.) according to the manufacturer's instructions. Briefly, the assay conditions contained 100 μM compound, 2 mg/mL of succinylated-casein and 0.15 mg/mL of the protease. The assay incubated in a final volume of 150 μLs 0.05 M sodium borate pH 8.5 buffer (NaB-buffer) for 20 minutes at 25° C. […] Absorbance values at 450 nm were read in an Emax (Molecular Devices, Sunnyvale, Calif.) micro plate reader. […]
(§2) Relative activities in the presence of inhibitor were calculated by taking the ratio of absorbance for a reaction containing inhibitor to the absorbance for a reaction without inhibitor. Significant inhibition was determined by testing the null hypothesis of equivalence between the mean absorbance of reactions containing inhibitor and the mean absorbance of reactions without inhibitor (2 tailed t-test, 2 df). […]

Assay [3] deals with papain (Carica papaya, UniProt P00784). Put plainly: Cross-reactivity protease inhibition assay (QuantiCleave), papain. As to conditions: ratio Abs450nm with inhibitor / without inhibitor; 100 μM compound. The method, then:
as §1, §2

Assay [4] addresses α-chymotrypsin (Bos taurus, UniProt P00766, DEL14-15/DEL147-148). The experiment in a line: Cross-reactivity protease inhibition assay (QuantiCleave), chymotrypsin. As to conditions: ratio Abs450nm with inhibitor / without inhibitor; 100 μM compound. The method, then:
as §1, §2

Turning to `CC1=CC(=O)c2c(O)cccc2C1=O`, in assay [1], the “Percent Activity” value turned out to be 10.26%. Besides, in assay [1] (relative activity as a fraction, values match Table II percent activity divided by 100), the “Caspase-3 Activity” value is recorded as 0.103. Besides, the “TPCK-Trypsin Activity” value in assay [2] worked out at 0.644. Further, the “Papain Activity” value in assay [3] is listed as 0.500. Moreover, the “α-Chymotrypsin Activity” value in assay [4] worked out at 0.857.

For the compound `O=c1c(O)cccc2cc(O)c(O)c(O)c12`, the “TPCK-Trypsin Activity” value in assay [2] was determined as 0.998. The “Papain Activity” value in assay [3] worked out at 0.935. In assay [4], the “α-Chymotrypsin Activity” value was 0.988.

Regarding `O=c1c(-c2ccc3c(c2)OCCO3)coc2cc(O)cc(O)c12`, in assay [1], the 50% inhibitory concentration (IC50) (as a rule, the concentration that inhibits the measured activity by half) stood at 1780 µM; the “Percent Activity” value was determined as 12.65%; the Ki was 283 µM.

`O=c1cc(-c2ccc(O)cc2)oc2cc(O)c(O)c(O)c12`: in assay [1], the IC50 stood at 73.9 µM, the “Percent Activity” value is 17.07% and the Ki is 11.7 µM.
